Only some compounds are listed: those with a hit (about 1.5% of all), similar ones and a draw of the others.
HIV Env fusion = blocks HIV Env-driven cell-cell fusion; HeLa-JRFL Env/CEM21 cell fusion, luciferase; inhibition, % at 12.3 µM; 1.1% of 360,000 active;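 active = mean replicate inhibition score of at least 50 and every replicate individually at or above 50; inconclusive = only one of the two criteria met; inactive = mean below 50 and not all replicates reaching 50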;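 also: 0% = plate neutral controls and 100% = maraviroc near 300 nM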
FN deposit inh = fibronectin deposition inhibition; AH1F fibroblasts, Alexa488-fibronectin deposition fluorescence, overnight; inhibition, % at 12.6 µM; 0.086% of 350,000 active;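 active = mean inhibition across replicates of 30% or more, regardless of how many single replicates reach that level; inconclusive = mean under 30% yet at least half of replicates reach 30%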;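 also: positive control wells lacked labelled fibronectin entirely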
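material = AH1F fibroblast monolayer depositing Alexa488-labelled fibronectin into matrix | amount = 10000 AH1F cells/well | buffer or medium = DMEM plus 2% serum, read in PBS | incubation = 1 h cell adhesion before compound, then overnight fibronectin incubation | detection = fluorescence at 485 nm excitation, 525 nm emission | evaluation = percent inhibition as loss of matrix-bound fibronectin fluorescence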
miR-122 sensor = miR-122 inhibition in Huh7 cells. 0.3% of 340,000 active. activation (reporter increase), % at 12.5 µM. Huh7 miR-122 Renilla luciferase sensor, 48 h; neutral wells = 0, positive control = 100. AID 602342;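 active = mean replicate activation score at least 90 and every replicate individually at or above 90; inconclusive = only one of the two criteria met; inactive = neither criterion met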;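 also: higher luciferase means less miR-122 activity so hits act as miR-122 inhibitors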
Cneo AK release = causes C. neoformans cell lysis. adenylate kinase release luminescence, 4 h; normalised: neutral wells 0, clomiphene wells 100. lysis activity, % at 15 µM. 0.2% of 360,000 active. AID 651654;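 active = mean lysis activity across replicates of at least 80%, whatever share of replicates individually reach that level; inactive = mean lysis activity below 80%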
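read-out = cell lysis signal | test system = log-phase Cryptococcus neoformans yeast cells | input = cells at 5 × 10^6 per mL | medium = fresh YPD growth medium | signal = luminescent adenylate kinase detection reagent | timing = 4 h at 37 °C static, read 1 h later | dosing = single dose | controls = Clomiphene as positive lysis control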
PGC1a acetyl inh = PGC1a acetylation modulation, inhibitor mode; inhibition, % at 15.6 µM; U2OS PGC1a acetylation, AlphaScreen anti-acetyl-lysine; with virally co-expressed GCN5 acetyltransferase; 0.17% of 350,000 active;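 active = every replicate shows inhibition of at least 40%; inconclusive = mean inhibition at least 40% but some replicate below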;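 also: 0% = neutral control wells and 100% = positive control wells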
Yeast UUG start-1 = alters start codon recognition fidelity in yeast; S. cerevisiae UUG-firefly luciferase reporter, luminescence/redox ratio; activity score, % at 18.7 µM; actives 0.13% (n = 350,000); AID 602363;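 active = replicate mean at a twofold rise or more, about +100% in these data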;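 also: firefly luciferase made from a UUG start codon reports start codon fidelity; reporter light over untreated wells divided by growth signal over untreated wells; some hits fall short of that in this replicate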
Yeast UUG start-2 = yeast start codon fidelity modulation | S. cerevisiae UUG-start firefly luciferase, luminescence, 4 h; 100% means double the DMSO signal | shares compounds with Yeast UUG start-1 | 540 tested, under 10 active | activation, % at 38 µM | AID 652061;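 active = signal increase whose fitted curve reaches an absolute level of 40 at a concentration under 10 µM; inactive = activity opposite to the expected increase, or the rest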
Active calls of the source: *; i = inactive; ? = inconclusive; . = no result; [ ] = dose if it differs, or a comment.

Codes: A = HIV Env fusion; B = FN deposit inh; C = miR-122 sensor; D = Cneo AK release; E = PGC1a acetyl inh; F = Yeast UUG start-1; G = Yeast UUG start-2
1	COC(=O)c1ccccc1NC(=O)CNC(=O)c1ccc(OC)cc1
  A: 0.1	B: -11.1	C: -2.8	D: -0.4	E: -7.9	F: 264.2*	G: -10.5
2	COc1ccc(C(=O)Nc2ccccc2C(N)=O)cc1
  A: -90.9	B: -4.3	C: -5.4	D: -18.1	E: -9.0	F: -17.2	G: .
3	O=C(CN1CCCc2ccccc21)N/N=C/c1ccccc1O
  A: .	B: 15.0	C: 9.2	D: -4.6	E: 2.2	F: 66.9*	G: 10.0
4	O=C(CN1CCCc2ccccc21)N/N=C/c1ccc(F)cc1F
  A: -27.9	B: -8.1	C: -2.2	D: 1.4	E: -12.8	F: -21.7	G: .
5	CCC(=O)Nc1nc2ccc3sc(C)nc3c2s1
  A: -60.0	B: -13.8	C: .	D: .	E: -7.1	F: .	G: .
6	O=C(O)C(c1ccccc1)C(c1ccccc1)c1ccccc1 (stereo not given)
  A: -5.6	B: -6.4	C: 9.3	D: -0.3	E: -4.3	F: 430.9*	G: 1.7
7	CCC(=O)Nc1ccc2c(c1)C(=O)N(C)C[C@H](OC)[C@H](C)CN(Cc1ccccc1C(=O)O)[C@H](C)CO2
  A: .	B: 7.0	C: .	D: -1.5	E: -3.8	F: -12.1	G: .
8	NS(=O)(=O)c1ccc(CCNC(=O)c2ccccc2OCc2ccc(F)cc2)cc1
  A: -0.8	B: -3.2	C: .	D: -0.1	E: .	F: -9.2	G: .
9	CCOc1ccccc1C(=O)NCC(=O)OCC(=O)NCCc1ccc(S(N)(=O)=O)cc1
  A: .	B: .	C: -6.8	D: 0.4	E: -2.0	F: 555.4*	G: 1.4
10	COc1ccc(S(=O)(=O)Nc2ccc3c(c2)CC(=O)N([C@@H](C)CO)C[C@@H](C)[C@H](CN(C)C(=O)Nc2c(C)noc2C)O3)cc1
  A: 12.9[16.7 µM]	B: 3.8	C: 1.7[16.7 µM]	D: 1.6	E: 1.0	F: -13.2	G: .
11	CCN(CC)c1ccc(C=Nc2ccc(C#N)cc2)c(O)c1
  A: .	B: .	C: -2.6	D: -3.5	E: -3.7	F: 465.7*	G: -6.4
12	CCCc1cc(C(=O)N/N=C/c2ccc(CC)s2)c2ccccc2n1
  A: -70.6	B: 7.2	C: 17.5	D: -17.5	E: .	F: 412.9*	G: 0.0
13	CCc1ccc(/C=N/NC(=O)c2cc(-c3ccncc3)nc3ccccc23)s1
  A: -96.3	B: 12.7	C: .	D: .	E: .	F: .	G: .
14	COC(=O)C[C@@H]1C[C@@H]2c3cc(NC(=O)Nc4ccccc4F)ccc3O[C@@H]2[C@@H](CO)O1
  A: .	B: -6.4	C: 29.6[16.7 µM]	D: 15.0	E: 1.1	F: 71.5*	G: i
15	COCCNC(=O)C[C@H]1C[C@@H]2c3cc(NC(=O)c4ccc5c(c4)OCO5)ccc3O[C@@H]2[C@@H](CO)O1
  A: 16.5[16.7 µM]	B: .	C: 2.1[16.7 µM]	D: 2.1	E: -2.5	F: 6.7	G: .
16	O=C(O)C[C@@H]1C[C@H]2c3cc(NC(=O)Nc4ccccc4F)ccc3O[C@H]2[C@H](CO)O1
  A: -7.4[16.7 µM]	B: .	C: -1.2[16.7 µM]	D: -1.1	E: 5.8	F: 5.0	G: .
17	COCCNC(=O)C[C@H]1C[C@H]2c3cc(NC(=O)c4ccc5c(c4)OCO5)ccc3O[C@H]2[C@@H](CO)O1
  A: -13.2[16.7 µM]	B: .	C: 9.5[16.7 µM]	D: -0.3	E: 0.9	F: 136.8*	G: i
18	COc1ccc(-c2cnnc(N/N=C/c3ccc(-c4ccc([N+](=O)[O-])cc4)o3)n2)cc1
  A: -276.4	B: -11.4	C: .	D: .	E: .	F: .	G: .
19	Cc1noc(C)c1C(=O)Nc1ccccc1N1CCCC1
  A: .	B: 6.5	C: .	D: -0.1	E: .	F: -13.4	G: .
20	C[C@@H]1CCCCO[C@H](CN(C)C(=O)Nc2ccc3c(c2)OCO3)[C@H](C)CN([C@H](C)CO)C(=O)c2cc(NC(=O)Nc3ccccc3)ccc2O1
  A: -32.7[16.7 µM]	B: 12.0	C: -3.9[16.7 µM]	D: -1.4	E: -5.8	F: -4.9	G: .
21	Cc1cnn(Cc2ccccc2)c1N
  A: -55.8	B: .	C: -1.5	D: 11.8	E: 5.4	F: 604.9*	G: -6.5
22	Cc1c(C(=O)C(C)C)n(C)c2ccccc12
  A: .	B: .	C: -6.6	D: -0.7	E: 13.5	F: 434.9*	G: 18.1
23	Cn1c(C(=O)O)c(C=O)c2ccccc21
  A: 4.7	B: -9.1	C: -15.6	D: 1.3	E: .	F: -8.7	G: .
24	CCOC(=O)N1CCN(C(=O)/C=C/c2ccc(OC)cc2)CC1
  A: 2.1	B: -7.1	C: 5.6	D: -0.2	E: -0.9	F: -8.6	G: .
25	CCN(CC)CC(=O)N1c2ccccc2CCc2ccc(NC(=O)c3cc(OC)c(OC)c(OC)c3)cc21
  A: 8.6	B: 10.9	C: .	D: 1.8	E: ?	F: active	G: -0.3

Part of the list above, with each value named:
#10 COc1ccc(S(=O)(=O)Nc2ccc3c(c2)CC(=O)N([C@@H](C)CO)C[C@@H](C)[C@H](CN(C)C(=O)Nc2c(C)noc2C)O3)cc1
  HIV Env fusion = 12.9[16.7 µM] | FN deposit inh = 3.8 | miR-122 sensor = 1.7[16.7 µM] | Cneo AK release = 1.6 | PGC1a acetyl inh = 1.0 | Yeast UUG start-1 = -13.2 | Yeast UUG start-2 = .
#11 CCN(CC)c1ccc(C=Nc2ccc(C#N)cc2)c(O)c1
  HIV Env fusion = . | FN deposit inh = . | miR-122 sensor = -2.6 | Cneo AK release = -3.5 | PGC1a acetyl inh = -3.7 | Yeast UUG start-1 = 465.7* | Yeast UUG start-2 = -6.4

Next results follow.
Codes: A = HIV Env fusion; B = FN deposit inh; C = miR-122 sensor; D = Cneo AK release; E = PGC1a acetyl inh; F = Yeast UUG start-1; G = Yeast UUG start-2
26	Cc1ccc(NC(=O)CSc2ncnc3ccccc23)cc1S(=O)(=O)N1CCOCC1
  A: 8.5	B: -7.0	C: 6.3	D: -0.3	E: 2.9	F: -2.3	G: .
27	COc1ccc(CCNS(=O)(=O)c2ccc(Cl)cc2)cc1OC
  A: -5.4	B: 7.7	C: 5.3	D: 0.7	E: .	F: -13.8	G: -7.2
28	COc1ccc(CCNS(=O)(=O)c2ccc(OC)c(OC)c2)cc1OC
  A: 20.2	B: -9.6	C: 5.7	D: 0.5	E: 9.3	F: -20.4	G: .
29	COc1ccc(CCNS(=O)(=O)c2ccc(Br)cc2)cc1OC
  A: 20.5	B: 2.4	C: 23.3	D: 9.0	E: -2.2	F: 16.3	G: .
30	COc1ccc(CCNS(=O)(=O)c2ccccc2)cc1OC
  A: .	B: .	C: 0.0	D: -2.3	E: .	F: 705.5*	G: -4.6
31	Cc1noc(C)c1S(=O)(=O)N1CCCC(C(=O)Nc2cccnc2)C1 (stereo not given)
  A: .	B: .	C: 1.3	D: -3.1	E: .	F: 614.1*	G: -4.5
32	CC12CCC(C(=O)N(CC(O)CN3CCN(Cc4ccccc4)CC3)C1=O)C2(C)C (stereo not given)
  A: 4.7	B: 0.5	C: -1.0	D: -0.4	E: 11.1	F: 102.1*	G: -5.2
33	CC(C)NC(=O)N(C)C[C@@H]1Oc2ncc(C#CCC3CCCC3)cc2C(=O)N([C@@H](C)CO)C[C@H]1C
  A: 7.6[16.7 µM]	B: -15.7	C: 8.4[16.7 µM]	D: -0.1	E: -5.6	F: 0.1	G: .
34	C[C@@H]1CCCCO[C@@H](CN(C)C(=O)Nc2cccc3ccccc23)[C@@H](C)CN([C@@H](C)CO)C(=O)c2cc(NC(=O)C3CCCCC3)ccc2O1
  A: -90.2[16.7 µM]	B: .	C: -17.3[16.7 µM]	D: -1.9	E: 10.6	F: 7.6	G: .
35	COc1cc(CN(C(=S)NCC(=O)O)C2CCCC2)cc(OC)c1OC
  A: -6.8	B: -6.1	C: .	D: .	E: -3.6	F: .	G: .
36	CC(C)N(CCc1ccncc1)C(=S)Nc1ccc(F)c(Cl)c1
  A: 20.0	B: -2.4	C: 0.1	D: -5.7	E: -16.7	F: 262.9*	G: -11.2
37	COc1ccc(NC(=S)N(CCc2ccncc2)C(C)C)cc1Cl
  A: 3.7	B: 4.8	C: 3.2	D: -1.0	E: 27.8	F: -15.0	G: .
38	C[C@H](CO)N1C[C@H](C)[C@@H](CN(C)C(=O)Cc2ccncc2)Oc2ncc(C#CC3(O)CCCC3)cc2C1=O
  A: 4.7[16.7 µM]	B: .	C: 9.2[16.7 µM]	D: 2.1	E: -9.5	F: -4.5	G: .
39	O=C(NN=Cc1ccc(O)cc1)C(=O)NN=Cc1ccc(O)cc1
  A: -25.5	B: 5.2	C: .	D: -0.6	E: 3.1	F: -16.7	G: .
40	Cc1ccc(NS(=O)(=O)c2cc(C(=O)NCc3cccnc3)ccc2C)cc1
  A: -24.2	B: .	C: 47.5	D: 0.2	E: .	F: -13.6	G: .
41	CCN(CC)CCNC(=O)Cn1nc(Cc2ccccc2)c2ccccc2c1=O
  A: .	B: .	C: -14.5	D: -0.3	E: -3.5	F: -17.9	G: .
42	CCN(CC)CCNC(=O)C(C)c1nn(CC)c(=O)c2ccccc12 (stereo not given)
  A: .	B: .	C: .	D: .	E: .	F: .	G: -4.7
43	CCN(CC)CCNC(=O)Cc1nn(CC)c(=O)c2ccccc12
  A: .	B: .	C: 0.6	D: 0.0	E: 8.4	F: -1.1	G: 5.8
44	Nc1ncnc(NCc2ccccc2)c1[N+](=O)[O-]
  A: 9.6	B: .	C: .	D: .	E: .	F: .	G: .
